Test results from patent publication US10428051B2 (priority 2015, dated 2019).

Amino acid sequences for entries named in this document (tags omitted).
UniProt Q99720, whole entry: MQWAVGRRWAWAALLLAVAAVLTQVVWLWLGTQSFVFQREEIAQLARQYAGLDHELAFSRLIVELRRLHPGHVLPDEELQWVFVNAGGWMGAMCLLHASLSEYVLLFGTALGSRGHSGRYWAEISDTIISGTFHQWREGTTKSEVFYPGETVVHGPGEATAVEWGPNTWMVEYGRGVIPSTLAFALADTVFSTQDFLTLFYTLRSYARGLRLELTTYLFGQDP

Molecular target: human σ1 receptor (Homo sapiens, UniProt Q99720)
Set-up: key to the marks not given beside the values
Settings: combined class for both Ki-σ1 (assay A1) and Ki-μ (assay A2); human receptors, radioligand binding

CCC(=O)N(CC1(N2CCN(Cc3ccccc3)CC2)CCNCC1)c1ccccc1
μ and σ1 dual (binding to the σ1 receptor and the μ-opioid receptor expressed as Ki): ++
